For this data set, the system named is C3H/BA mammary adenocarcinoma. The class given is in vivo, mice (C3H/He). Particulars: 5 mg/kg i.p. once daily for nine days. The protocol: On day zero, 2 mm^2 trocar fragments of C3H/BA mammary adenocarcinoma were implanted subcutaneously in the axillary region into groups of six C3H/He female mice. Starting on day 1, the test compound was administered intraperitoneally in 40% Encapsin given once daily for nine days. Control animals received identical treatment without test compound. The percentage of inhibition was calculated by comparing the mass of the control tumors (receiving diluent only) on day 14 to those of animals receiving test compound.

`Nc1nc2c(c(=O)[nH]1)SC(CCc1ccc(C(=O)N[C@@H](CCC(=O)O)C(=O)O)s1)CN2` (stereo partly drawn) [Compound 21, 4-[2-(2-Amino-4-oxo-4,6,7,8-tetrahydro-3H-pyrimido[5,4-6][1,4]thiazin-6-yl)-ethyl]-2,5-thienoylamino-L-glutamic acid]: the Survivors is on record as 5/6.

The record behind these values is patent US5641774A, “Compounds useful as antiproliferative agents and garft inhibitors” (Agouron Pharmaceuticals, Inc., priority 1995, dated 1997).
